Experimental data taken from US20160263250A1.
pEC50: −log10 of the molar value. Values belong to the substance of their own block, whether it stands above or below them.

Legend:
[1] = target: GLP-1R naturally expressed on mouse insulinoma-derived MIN6 cells and mouse pancreatic beta cells (mouse) (UniProt O35659)
[2] = target: GLP-1R naturally expressed on mouse insulinoma-derived MIN6 cells and mouse pancreatic beta cells (mouse) (UniProt O35659); test: cell binding, fluorescence plate reader, MIN6 cells, 1 hour at 37 C
[3] = target: human GLP-1R (human) (UniProt P43220); test: cell binding, fluorescence plate reader, HEK/hGLP-1R cells, 1 hour at 37 C

fold lower fluorescence of Exendin-4K12-VT680 after pre-treatment [1]: 5 fold
Substance: Exendin-4 (from UniProt P26349 48-86) (peptide)

Substance: Exendin-4K12-VT680 (peptide)
pEC50 [2]: 9.30

Substance: Exendin-4K12-VT680 (peptide; other documents disagree on this pair)
pEC50 [3]: 9.52
